Experimental data: PubChem BioAssay (NCI)
“And” between values parts separate entries of the source, which are not always exact repeats. Identical values can stand only once. Only a part is listed here, and it is no random draw. Some of these compounds have results that are not shown, active ones among them.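 The endpoint reported here, percent growth, reads 100 for growth as untreated, 0 for no net growth and -100 for all cells dead.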 The source made the active and inactive calls. Rule for the calls: active = growth percent below 10; inactive = the rest.

Each compound was assayed on OVCAR-3 ovarian (assay: NCI-60 one-dose screen, 48 h (100 = growth as untreated, 0 = no growth, -100 = all killed)). Conditions: 10 µM.

| SMILES | growth |
| --- | --- |
| ClCCN(CCCl)Cc1cc(Cl)cc(Cl)c1 | inactive: 86.2% |
| N#CC(C#N)=Cc1ccccc1Cl | inactive: 107% |
| ClCCN(CCCl)Cc1ccsc1Br | inactive: 92.8% |
| N#CC(C#N)=Cc1cccc(Br)c1 | inactive: 110% |
| Fc1cccc(CN(CCCl)CCCl)c1 | inactive: 95.1% |
| Cc1cc2nc(CN(CCCl)CCCl)[nH]c2cc1C | inactive: 95.7% |
| ClCCN(CCCl)C1c2ccccc2-c2ccccc21 | inactive: 95.3% |
| CC(C)(C)N(CCCl)CCCl | inactive: 110% |
| N#CC(C#N)=Cc1ccc(Br)cc1 | inactive: 108% and inactive: 112% |
| CCOc1ccc([N+](=O)[O-])cc1CN(CCCl)CCCl | inactive: 103% |
| CN(C)CCOC(=O)C(O)(c1ccccc1)c1ccccc1 | inactive: 111% |
| ClCCN(CCCl)Cc1ccc(Cl)c(Cl)c1 | inactive: 107% |
| CC(=O)CI | inactive: 107% |
| CCCN(CCCl)CCCl | inactive: 117% |
| BrCCN(CCBr)Cc1ccccc1 | inactive: 101% |
| CCNCCCl | inactive: 92.8% |
| O=C(OCCN1CCCC1)C(O)(c1ccccc1)c1ccccc1 | inactive: 117% |
| COc1ccc(N=C=S)cc1CN(CCCl)CCCl | inactive: 75.3% |
| CC[N+](C)(C)Cc1cccc(Cc2ccccc2)c1OC(=O)N(C)C | inactive: 104% |
| COc1ccc([N+](=O)[O-])cc1CN(CCCl)CCCl | inactive: 103% |
| ClCCCCCC(CCl)NCCCl (configuration not stated) | inactive: 103% |
| COCc1c(CN(CCCl)CCCl)cnc(C)c1O | inactive: 106% |
| CN(CCBr)CCBr | inactive: 104% |

The compounds below were run on HS 578T breast in the same assay as above. Conditions: 10 µM.

| SMILES | growth |
| --- | --- |
| ClCCN(CCCl)Cc1cc(Cl)cc(Cl)c1 | inactive: 95.4% |
| N#CC(C#N)=Cc1ccccc1Cl | inactive: 128% |
| ClCCN(CCCl)Cc1ccsc1Br | inactive: 84% |
| N#CC(C#N)=Cc1cccc(Br)c1 | inactive: 96.2% |
| Fc1cccc(CN(CCCl)CCCl)c1 | inactive: 110% |
| Cc1cc2nc(CN(CCCl)CCCl)[nH]c2cc1C | inactive: 92.9% |
| ClCCN(CCCl)C1c2ccccc2-c2ccccc21 | inactive: 93.1% |
| N#CC(C#N)=Cc1ccc(Br)cc1 | inactive: 112% and inactive: 108% |
| CCOc1ccc([N+](=O)[O-])cc1CN(CCCl)CCCl | inactive: 95.3% |
| CN(C)CCOC(=O)C(O)(c1ccccc1)c1ccccc1 | inactive: 130% |
| CC(=O)CI | inactive: 109% |
| O=C(OCCN1CCCC1)C(O)(c1ccccc1)c1ccccc1 | inactive: 115% |
| COc1ccc(N=C=S)cc1CN(CCCl)CCCl | inactive: 92.7% |
| ClCCN(CCCl)C1CCCCC1 | inactive: 102% |
| CC[N+](C)(C)Cc1cccc(Cc2ccccc2)c1OC(=O)N(C)C | inactive: 111% |
| COc1ccc([N+](=O)[O-])cc1CN(CCCl)CCCl | inactive: 103% |
| ClCCCCCC(CCl)NCCCl (configuration not stated) | inactive: 108% |
| COCc1c(CN(CCCl)CCCl)cnc(C)c1O | inactive: 101% |
| CN(CCBr)CCBr | inactive: 107% |
